By UniProt entry, the sequences of proteins in these tests, tags left out. Where a name states a change or a piece, a line headed by the entry shows the natural chain unless it says otherwise.
UniProt P35968, whole entry: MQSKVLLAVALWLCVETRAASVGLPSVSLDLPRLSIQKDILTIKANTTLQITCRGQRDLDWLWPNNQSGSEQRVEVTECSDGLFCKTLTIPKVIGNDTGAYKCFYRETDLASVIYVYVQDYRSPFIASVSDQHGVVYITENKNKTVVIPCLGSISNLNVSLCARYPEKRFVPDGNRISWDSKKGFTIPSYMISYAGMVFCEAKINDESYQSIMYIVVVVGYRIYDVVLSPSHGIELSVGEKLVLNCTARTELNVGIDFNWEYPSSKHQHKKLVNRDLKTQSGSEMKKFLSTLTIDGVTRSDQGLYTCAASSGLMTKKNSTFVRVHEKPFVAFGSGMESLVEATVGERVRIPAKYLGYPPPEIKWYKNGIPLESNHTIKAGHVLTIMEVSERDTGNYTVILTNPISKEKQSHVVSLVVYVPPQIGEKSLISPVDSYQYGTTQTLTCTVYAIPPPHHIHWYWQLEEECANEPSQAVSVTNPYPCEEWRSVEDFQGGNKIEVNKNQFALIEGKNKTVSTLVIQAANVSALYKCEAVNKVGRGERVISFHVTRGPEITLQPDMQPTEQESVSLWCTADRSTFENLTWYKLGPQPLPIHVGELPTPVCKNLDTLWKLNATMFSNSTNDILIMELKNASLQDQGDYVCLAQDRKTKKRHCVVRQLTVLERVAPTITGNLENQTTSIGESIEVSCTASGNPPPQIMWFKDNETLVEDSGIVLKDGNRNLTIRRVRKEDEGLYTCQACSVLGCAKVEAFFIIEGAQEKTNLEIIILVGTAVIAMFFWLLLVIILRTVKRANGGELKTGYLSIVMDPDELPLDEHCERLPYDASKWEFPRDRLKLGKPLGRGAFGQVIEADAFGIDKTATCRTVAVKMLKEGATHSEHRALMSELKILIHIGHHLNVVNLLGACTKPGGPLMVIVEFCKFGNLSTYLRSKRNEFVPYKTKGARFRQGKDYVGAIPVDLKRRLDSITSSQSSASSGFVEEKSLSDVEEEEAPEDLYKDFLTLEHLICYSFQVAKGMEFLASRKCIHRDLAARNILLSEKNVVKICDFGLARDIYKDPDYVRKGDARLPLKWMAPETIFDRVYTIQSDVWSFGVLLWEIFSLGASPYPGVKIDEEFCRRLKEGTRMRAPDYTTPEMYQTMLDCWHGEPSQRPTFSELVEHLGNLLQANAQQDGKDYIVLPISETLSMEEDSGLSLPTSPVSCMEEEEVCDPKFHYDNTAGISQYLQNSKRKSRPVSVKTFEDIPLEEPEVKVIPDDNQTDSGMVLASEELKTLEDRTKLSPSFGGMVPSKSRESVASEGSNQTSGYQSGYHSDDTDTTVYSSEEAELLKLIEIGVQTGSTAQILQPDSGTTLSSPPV
UniProt Q16539, whole entry: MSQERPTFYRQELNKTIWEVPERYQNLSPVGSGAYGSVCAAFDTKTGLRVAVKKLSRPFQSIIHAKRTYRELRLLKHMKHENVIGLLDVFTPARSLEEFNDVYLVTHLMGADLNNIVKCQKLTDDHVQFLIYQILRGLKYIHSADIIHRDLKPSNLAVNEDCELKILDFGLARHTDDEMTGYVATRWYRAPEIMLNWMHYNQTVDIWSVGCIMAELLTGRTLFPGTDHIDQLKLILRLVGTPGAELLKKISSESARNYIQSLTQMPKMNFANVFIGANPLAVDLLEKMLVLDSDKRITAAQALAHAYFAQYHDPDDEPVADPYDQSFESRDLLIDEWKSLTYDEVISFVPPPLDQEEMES
UniProt P05771, whole entry: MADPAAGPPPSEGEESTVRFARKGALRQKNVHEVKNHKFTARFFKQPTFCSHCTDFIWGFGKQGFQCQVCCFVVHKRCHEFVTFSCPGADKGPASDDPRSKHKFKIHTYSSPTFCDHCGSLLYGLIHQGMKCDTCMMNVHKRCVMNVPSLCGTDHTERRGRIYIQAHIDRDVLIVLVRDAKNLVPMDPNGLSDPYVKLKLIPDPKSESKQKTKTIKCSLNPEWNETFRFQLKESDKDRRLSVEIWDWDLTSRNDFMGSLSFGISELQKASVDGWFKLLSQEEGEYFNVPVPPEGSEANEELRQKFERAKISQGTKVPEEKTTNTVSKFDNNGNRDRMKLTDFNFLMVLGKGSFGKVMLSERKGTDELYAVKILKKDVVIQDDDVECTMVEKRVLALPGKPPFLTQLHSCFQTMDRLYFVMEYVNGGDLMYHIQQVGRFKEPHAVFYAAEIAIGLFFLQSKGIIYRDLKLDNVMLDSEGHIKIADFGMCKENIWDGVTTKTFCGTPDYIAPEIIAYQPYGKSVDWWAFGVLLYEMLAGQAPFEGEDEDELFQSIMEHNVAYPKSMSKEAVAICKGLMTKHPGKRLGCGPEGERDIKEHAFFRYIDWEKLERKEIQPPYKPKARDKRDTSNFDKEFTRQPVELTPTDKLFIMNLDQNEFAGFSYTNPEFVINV
UniProt P29597: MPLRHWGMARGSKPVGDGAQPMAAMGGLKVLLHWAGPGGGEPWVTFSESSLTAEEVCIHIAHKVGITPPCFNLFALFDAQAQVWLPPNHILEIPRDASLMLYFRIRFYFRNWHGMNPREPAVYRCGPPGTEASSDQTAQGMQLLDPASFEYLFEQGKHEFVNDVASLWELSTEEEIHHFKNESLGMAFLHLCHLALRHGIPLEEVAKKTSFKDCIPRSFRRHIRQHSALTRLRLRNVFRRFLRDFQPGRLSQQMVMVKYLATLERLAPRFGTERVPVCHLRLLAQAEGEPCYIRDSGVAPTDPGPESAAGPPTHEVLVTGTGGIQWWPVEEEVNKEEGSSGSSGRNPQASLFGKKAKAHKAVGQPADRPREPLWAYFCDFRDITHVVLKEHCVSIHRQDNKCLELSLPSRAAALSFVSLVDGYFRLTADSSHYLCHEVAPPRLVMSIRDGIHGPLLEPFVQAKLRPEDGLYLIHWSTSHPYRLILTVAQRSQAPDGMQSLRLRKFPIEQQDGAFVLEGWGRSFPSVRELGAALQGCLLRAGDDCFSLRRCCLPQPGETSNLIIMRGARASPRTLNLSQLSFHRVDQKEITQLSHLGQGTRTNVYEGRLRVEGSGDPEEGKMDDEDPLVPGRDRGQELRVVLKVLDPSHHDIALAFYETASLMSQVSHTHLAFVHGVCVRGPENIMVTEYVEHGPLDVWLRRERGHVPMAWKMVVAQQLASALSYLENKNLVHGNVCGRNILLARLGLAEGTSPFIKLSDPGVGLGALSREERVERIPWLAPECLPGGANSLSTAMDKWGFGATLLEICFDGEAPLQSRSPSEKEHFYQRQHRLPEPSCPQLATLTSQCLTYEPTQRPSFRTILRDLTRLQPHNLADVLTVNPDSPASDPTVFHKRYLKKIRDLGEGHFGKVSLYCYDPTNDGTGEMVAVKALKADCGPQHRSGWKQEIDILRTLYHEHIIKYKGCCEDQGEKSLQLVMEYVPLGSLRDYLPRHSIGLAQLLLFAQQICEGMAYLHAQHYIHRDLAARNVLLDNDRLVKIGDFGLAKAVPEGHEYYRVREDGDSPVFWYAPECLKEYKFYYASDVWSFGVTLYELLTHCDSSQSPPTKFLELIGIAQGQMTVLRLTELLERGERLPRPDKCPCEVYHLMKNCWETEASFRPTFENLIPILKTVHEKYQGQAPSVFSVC
UniProt P04629: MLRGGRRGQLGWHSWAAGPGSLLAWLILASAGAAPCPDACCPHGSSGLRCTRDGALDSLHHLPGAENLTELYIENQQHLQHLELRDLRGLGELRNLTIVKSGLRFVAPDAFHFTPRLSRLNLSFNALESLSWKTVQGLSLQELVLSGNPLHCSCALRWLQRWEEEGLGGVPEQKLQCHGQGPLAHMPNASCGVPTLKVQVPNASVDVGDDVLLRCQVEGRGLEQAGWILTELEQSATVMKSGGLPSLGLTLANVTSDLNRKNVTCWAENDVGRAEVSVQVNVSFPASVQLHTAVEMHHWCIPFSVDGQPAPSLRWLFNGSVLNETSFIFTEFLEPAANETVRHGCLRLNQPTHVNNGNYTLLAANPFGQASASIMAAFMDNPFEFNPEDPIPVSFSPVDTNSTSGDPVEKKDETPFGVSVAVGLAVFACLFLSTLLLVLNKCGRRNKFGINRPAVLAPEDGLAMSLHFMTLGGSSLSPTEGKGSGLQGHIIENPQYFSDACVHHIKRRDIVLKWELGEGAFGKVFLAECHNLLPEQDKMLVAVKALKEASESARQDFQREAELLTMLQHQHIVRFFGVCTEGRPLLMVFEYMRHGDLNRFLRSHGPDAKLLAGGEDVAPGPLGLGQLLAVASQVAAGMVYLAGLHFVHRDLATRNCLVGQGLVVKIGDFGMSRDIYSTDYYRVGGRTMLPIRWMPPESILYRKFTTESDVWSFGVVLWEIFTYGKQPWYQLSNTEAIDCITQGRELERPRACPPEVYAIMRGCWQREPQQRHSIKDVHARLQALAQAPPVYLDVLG
UniProt O60674: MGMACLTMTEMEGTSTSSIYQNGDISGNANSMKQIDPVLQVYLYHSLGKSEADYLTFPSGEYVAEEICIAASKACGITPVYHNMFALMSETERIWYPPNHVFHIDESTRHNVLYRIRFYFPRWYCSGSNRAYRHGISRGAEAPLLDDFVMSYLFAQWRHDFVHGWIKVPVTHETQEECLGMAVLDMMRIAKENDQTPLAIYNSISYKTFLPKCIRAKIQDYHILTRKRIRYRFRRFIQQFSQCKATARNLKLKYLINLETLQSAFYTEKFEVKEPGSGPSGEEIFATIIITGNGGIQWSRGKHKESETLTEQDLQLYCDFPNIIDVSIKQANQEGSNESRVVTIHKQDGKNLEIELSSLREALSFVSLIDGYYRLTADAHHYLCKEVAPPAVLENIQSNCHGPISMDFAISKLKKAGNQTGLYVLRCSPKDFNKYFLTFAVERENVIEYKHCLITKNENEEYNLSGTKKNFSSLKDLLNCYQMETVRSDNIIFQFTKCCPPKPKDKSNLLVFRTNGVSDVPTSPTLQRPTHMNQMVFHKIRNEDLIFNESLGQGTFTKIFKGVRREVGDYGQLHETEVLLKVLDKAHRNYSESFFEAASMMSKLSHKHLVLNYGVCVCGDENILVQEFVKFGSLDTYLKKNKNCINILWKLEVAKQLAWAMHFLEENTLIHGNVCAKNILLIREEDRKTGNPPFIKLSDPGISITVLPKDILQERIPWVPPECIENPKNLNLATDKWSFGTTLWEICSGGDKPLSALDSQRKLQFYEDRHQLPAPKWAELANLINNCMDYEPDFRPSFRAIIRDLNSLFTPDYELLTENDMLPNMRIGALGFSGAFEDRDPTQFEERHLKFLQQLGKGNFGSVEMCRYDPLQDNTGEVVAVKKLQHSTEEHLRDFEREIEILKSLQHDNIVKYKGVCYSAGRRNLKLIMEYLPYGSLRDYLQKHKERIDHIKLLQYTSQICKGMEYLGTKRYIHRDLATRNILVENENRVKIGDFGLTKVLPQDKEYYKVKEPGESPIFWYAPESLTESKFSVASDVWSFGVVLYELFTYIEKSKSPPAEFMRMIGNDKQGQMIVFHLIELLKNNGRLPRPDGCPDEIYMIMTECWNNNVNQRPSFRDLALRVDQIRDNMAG
UniProt O43683: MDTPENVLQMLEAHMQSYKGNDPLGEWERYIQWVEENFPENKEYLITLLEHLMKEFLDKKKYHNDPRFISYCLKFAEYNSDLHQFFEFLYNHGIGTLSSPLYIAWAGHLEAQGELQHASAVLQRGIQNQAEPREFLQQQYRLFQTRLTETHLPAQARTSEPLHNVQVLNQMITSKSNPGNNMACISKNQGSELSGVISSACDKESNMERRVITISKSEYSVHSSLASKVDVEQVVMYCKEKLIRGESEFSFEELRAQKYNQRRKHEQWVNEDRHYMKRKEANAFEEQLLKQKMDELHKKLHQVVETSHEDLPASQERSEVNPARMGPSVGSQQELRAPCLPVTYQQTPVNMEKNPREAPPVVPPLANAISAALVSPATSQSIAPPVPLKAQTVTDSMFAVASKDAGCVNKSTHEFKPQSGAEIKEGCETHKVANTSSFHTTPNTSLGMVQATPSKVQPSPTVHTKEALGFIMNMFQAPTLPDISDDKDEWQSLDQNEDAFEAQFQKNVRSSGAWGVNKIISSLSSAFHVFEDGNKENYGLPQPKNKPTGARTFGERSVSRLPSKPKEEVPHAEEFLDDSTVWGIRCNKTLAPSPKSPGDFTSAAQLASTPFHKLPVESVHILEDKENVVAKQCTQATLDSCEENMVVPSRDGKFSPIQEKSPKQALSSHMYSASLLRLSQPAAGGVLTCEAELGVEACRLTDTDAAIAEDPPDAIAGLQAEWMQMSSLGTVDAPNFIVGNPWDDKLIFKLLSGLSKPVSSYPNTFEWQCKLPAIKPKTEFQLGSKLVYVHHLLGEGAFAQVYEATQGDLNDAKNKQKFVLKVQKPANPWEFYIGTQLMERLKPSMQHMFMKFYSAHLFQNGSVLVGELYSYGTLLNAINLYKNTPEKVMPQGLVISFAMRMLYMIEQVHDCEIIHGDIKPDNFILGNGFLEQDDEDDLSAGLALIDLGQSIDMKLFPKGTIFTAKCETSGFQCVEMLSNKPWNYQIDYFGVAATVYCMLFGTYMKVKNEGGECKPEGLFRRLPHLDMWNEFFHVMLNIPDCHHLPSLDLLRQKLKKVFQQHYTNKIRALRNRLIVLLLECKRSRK

According to ChEMBL document CHEMBL3297733, “Discovery and optimization of pyrrolo[1,2-a]pyrazinones leads to novel and selective inhibitors of PIM kinases” (Bioorg Med Chem, 2013):

Columns and labels:
[1] = biological target: Vascular endothelial growth factor receptor 2 (Homo sapiens, UniProt P35968); experiment: Inhibition of VEGFR2 (unknown origin)
Aurora kinase A = biological target: T1, Aurora kinase A (Homo sapiens, UniProt O14965); experiment: Inhibition of aurora kinase 1 (unknown origin)
T1 sequence (O14965 whole entry): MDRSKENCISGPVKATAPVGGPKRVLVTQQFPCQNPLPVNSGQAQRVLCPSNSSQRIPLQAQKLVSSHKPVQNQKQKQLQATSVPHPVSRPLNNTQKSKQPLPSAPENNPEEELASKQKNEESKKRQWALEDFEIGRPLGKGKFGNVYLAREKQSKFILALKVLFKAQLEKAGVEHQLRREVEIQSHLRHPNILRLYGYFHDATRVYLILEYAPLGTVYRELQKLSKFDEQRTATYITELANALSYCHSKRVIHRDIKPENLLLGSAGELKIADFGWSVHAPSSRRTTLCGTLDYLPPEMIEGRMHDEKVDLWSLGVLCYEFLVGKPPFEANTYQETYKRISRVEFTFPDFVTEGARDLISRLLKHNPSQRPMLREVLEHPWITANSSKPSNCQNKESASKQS

[2] = biological target: Mitogen-activated protein kinase 14 (Homo sapiens, UniProt Q16539); experiment: Inhibition of P38alpha (unknown origin)
[3] = biological target: Protein kinase C beta type (Homo sapiens, UniProt P05771); experiment: Inhibition of PKC-beta (unknown origin)
[4] = biological target: T2, Eukaryotic elongation factor 2 kinase (Homo sapiens, UniProt O00418); experiment: Inhibition of EEF2K (unknown origin)
T2 sequence (O00418 whole entry): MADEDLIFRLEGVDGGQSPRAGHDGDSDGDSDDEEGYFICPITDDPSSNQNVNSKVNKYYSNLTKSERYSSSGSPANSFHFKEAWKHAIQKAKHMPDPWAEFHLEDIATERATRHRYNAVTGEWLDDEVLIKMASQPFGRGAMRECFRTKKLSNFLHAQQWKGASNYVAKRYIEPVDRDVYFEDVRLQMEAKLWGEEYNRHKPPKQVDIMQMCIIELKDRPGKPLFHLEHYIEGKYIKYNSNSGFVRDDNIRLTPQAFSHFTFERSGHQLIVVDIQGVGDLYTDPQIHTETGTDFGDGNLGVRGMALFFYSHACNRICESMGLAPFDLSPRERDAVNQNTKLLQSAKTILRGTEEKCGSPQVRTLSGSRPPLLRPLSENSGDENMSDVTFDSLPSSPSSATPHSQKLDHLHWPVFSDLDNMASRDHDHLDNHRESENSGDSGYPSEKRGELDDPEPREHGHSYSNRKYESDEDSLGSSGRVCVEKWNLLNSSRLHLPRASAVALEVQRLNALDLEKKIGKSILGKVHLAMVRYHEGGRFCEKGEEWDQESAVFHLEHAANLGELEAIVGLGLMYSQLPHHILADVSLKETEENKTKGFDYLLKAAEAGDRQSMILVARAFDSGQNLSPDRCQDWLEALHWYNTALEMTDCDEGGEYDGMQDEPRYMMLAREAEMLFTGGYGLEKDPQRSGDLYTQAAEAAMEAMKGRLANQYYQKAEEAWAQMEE

Aurora kinase B = Aurora kinase B (Homo sapiens, UniProt Q96GD4); experiment: Inhibition of aurora kinase 2 (unknown origin)
[5] = biological target: Non-receptor tyrosine-protein kinase TYK2 (Homo sapiens, UniProt P29597); experiment: Inhibition of TYK2 (unknown origin)
[6] = biological target: High affinity nerve growth factor receptor (Homo sapiens, UniProt P04629); experiment: Inhibition of TRKA (unknown origin)
[7] = biological target: T3, Tyrosine-protein kinase JAK3 (Homo sapiens, UniProt P52333); experiment: Inhibition of JAK3 (unknown origin)
T3 sequence (P52333 whole entry): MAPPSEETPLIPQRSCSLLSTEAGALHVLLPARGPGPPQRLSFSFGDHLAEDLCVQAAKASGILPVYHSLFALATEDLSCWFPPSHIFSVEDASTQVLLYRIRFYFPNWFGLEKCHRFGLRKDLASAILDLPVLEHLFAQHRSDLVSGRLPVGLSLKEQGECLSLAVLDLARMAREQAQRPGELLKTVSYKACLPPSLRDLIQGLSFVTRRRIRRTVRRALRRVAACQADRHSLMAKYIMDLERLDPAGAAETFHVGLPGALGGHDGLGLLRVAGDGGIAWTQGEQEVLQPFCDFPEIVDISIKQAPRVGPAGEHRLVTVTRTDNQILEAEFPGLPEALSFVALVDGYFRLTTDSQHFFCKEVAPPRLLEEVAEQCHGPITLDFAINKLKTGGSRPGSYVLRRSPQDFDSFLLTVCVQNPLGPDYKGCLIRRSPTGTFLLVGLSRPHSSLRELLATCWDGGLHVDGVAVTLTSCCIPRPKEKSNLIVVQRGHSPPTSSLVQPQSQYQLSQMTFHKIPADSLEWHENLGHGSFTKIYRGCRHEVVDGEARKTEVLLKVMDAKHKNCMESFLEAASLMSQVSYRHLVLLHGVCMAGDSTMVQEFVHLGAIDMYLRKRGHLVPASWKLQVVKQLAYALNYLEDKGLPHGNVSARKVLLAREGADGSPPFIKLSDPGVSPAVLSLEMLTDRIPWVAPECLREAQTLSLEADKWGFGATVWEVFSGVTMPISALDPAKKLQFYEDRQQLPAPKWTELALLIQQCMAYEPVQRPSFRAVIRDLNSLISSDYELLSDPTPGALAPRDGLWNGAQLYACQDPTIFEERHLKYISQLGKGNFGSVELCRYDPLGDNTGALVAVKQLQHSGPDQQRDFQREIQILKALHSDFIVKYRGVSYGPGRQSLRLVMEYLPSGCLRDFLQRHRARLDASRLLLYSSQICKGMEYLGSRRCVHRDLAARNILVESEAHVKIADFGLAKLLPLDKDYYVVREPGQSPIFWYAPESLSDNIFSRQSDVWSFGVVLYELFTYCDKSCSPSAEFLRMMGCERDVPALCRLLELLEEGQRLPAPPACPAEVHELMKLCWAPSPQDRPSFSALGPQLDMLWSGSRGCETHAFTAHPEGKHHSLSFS

[8] = biological target: Tyrosine-protein kinase JAK2 (Homo sapiens, UniProt O60674); experiment: Inhibition of JAK2 (unknown origin)
[9] = biological target: Mitotic checkpoint serine/threonine-protein kinase BUB1 (Homo sapiens, UniProt O43683); experiment: Inhibition of BUB1 (unknown origin)
Ephrin type-A receptor 2 = Ephrin type-A receptor 2 (Homo sapiens, UniProt P29317); experiment: Inhibition of EphA2 (unknown origin)
[10] = biological target: T4, Serine/threonine-protein kinase Nek6 (Homo sapiens, UniProt Q9HC98); experiment: Inhibition of NEK6 (unknown origin)
T4 sequence (Q9HC98 whole entry): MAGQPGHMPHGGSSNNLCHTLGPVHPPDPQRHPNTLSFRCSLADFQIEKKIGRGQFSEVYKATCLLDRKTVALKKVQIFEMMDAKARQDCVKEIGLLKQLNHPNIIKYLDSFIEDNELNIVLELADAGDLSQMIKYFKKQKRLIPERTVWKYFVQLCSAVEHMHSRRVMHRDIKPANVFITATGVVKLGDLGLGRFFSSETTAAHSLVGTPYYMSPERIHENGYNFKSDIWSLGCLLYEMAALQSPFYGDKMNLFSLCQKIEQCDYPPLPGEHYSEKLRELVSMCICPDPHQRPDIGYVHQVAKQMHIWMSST

[11] = biological target: Serine/threonine-protein kinase 26 (Homo sapiens, UniProt Q9P289); experiment: Inhibition of MST4 (unknown origin)

Measured: IC50

CC(C)(C)CNC(=O)CC1CNC(=O)c2cc(-c3ccsc3)cn21 (racemic)
> 10 µM: [1] | Aurora kinase A | [2] | [3] | [4] | Aurora kinase B | [5] | [6] | [7] | [8] | [9] | Ephrin type-A receptor 2 | [10] | [11]
